# Measurements: PubChem BioAssay AID2445 (The Scripps Research Institute Molecular Screening Center, 2010)
# The chains behind the UniProt entries cited, without tags or fusion partners. Where a name states a change or a piece, a line headed by the entry shows the natural chain unless it says otherwise.
# UniProt P30559: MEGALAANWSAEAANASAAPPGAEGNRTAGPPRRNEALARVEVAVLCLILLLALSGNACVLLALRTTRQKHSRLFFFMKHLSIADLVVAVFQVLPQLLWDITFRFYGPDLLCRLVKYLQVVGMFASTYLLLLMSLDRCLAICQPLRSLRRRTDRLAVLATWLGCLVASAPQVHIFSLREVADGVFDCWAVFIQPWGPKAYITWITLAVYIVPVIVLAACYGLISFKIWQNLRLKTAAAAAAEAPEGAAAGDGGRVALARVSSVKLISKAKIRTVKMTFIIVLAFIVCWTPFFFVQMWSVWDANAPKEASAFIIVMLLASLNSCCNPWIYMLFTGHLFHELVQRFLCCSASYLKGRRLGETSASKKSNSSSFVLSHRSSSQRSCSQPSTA
# The list shows a part of the results, in another mix than the full data. Calls of active or inactive are those of the source.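 Rule for the calls: active = activation above that plate's cutoff, the mean activation of tested compounds plus 3 SD (cut at about 6.6% in these data, passing the limit was not always enough); inactive = the rest.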
# Biological target: Oxytocin receptor (Homo sapiens) (UniProt P30559)
# Assay: enhancers of oxytocin-evoked OXTR calcium signal – fluorescence, CHO-OTR cells, Fluo-8 calcium, primary screen (AID 2445);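 note: 100% uses oxytocin at 75 nM as the full agonist control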
# Settings: Fluo-8 calcium fluorescence, potentiator mode, at 3 µM, hits give high values, 0% = oxytocin EC15, 100% = EC100
row,SMILES,activation
1,CN(C)C(=O)OCCc1n(C)cc[n+]1C,inactive: -3.39%
2,CC(C)=N/N=C(\N)N[N+](=O)[O-],inactive: 0.78%
3,CC1CCN(C(=O)Oc2c(Cl)cc(Cl)c3cccnc23)CC1,inactive: -7.77%
4,C[N+]1=C2C=CC=CC=C2SC12C([N+](=O)[O-])=CC([N+](=O)[O-])=C[C-]2[N+](=O)[O-] (stereo not given),inactive: -10.6%
5,Nc1ccc([As](=O)(O)c2ccc(N)cc2)cc1,inactive: -19.6%
6,CCN(/C(=N/P(=O)(N1CCOCC1)N1CCOCC1)N1CCOCC1)c1ccc(OC)cc1,inactive: 6.43%
7,CC(=O)N1C2C3N(C(C)=O)C1C1N(C(C)=O)C(C(N1C(C)=O)N3C(C)=O)N2C(C)=O,inactive: -3.39%
8,O=[N+]([O-])c1cccc2n[nH]nc12,inactive: -2.92%
9,O=[N+]([O-])c1cc([N+](=O)[O-])c(CCNc2ccccc2)c([N+](=O)[O-])c1,inactive: -14.6%
10,CCc1nc2c(n1)c1c(non1O)c1c2no[n+]1[O-],inactive: -8.28%
11,Cc1ccc(NP(=O)(Oc2ccccc2)Oc2ccccc2)nc1,inactive: -5.37%
12,COc1ccc(C2=NCC(CBr)S2)cc1 (stereo not given),inactive: 6.6%
13,O=[N+]([O-])c1cccc(NC2=NCC(CBr)S2)c1 (stereo not given),inactive: -4.87%
14,CC(C)(C)C(=O)NC(Sc1ccncn1)C(Cl)(Cl)Cl (stereo not given),inactive: 0.87%
15,O=[N+]([O-])c1ncn(CCn2ncnc2[N+](=O)[O-])n1,inactive: -5.97%
16,O=C(Nc1cc([As](=O)(O)O)ccc1O)c1ccccc1,inactive: -12.9%
17,CCN(N=Nc1nonc1N)c1nonc1N,inactive: 1.26%
18,O=[N+]([O-])c1cc([N+](=O)[O-])c(CCN2CCOCC2)c([N+](=O)[O-])c1,inactive: -8.02%
19,Cc1ccc(NP(=O)(Oc2ccccc2F)Oc2ccccc2F)nc1,inactive: 0.25%
20,CCOP(=O)(Nc1ccccc1)OCC,inactive: 4.86%
21,Cc1cc(SC(NC(=O)c2ccc(F)cc2)C(Cl)(Cl)Cl)ncn1 (stereo not given),inactive: -5.2%
22,O=C(O)c1ccccc1[As](=O)(O)O,inactive: -1.91%
23,CC(=O)Nc1ccc([As](=O)(O)O)cc1,inactive: -5.3%
24,O=P(Nc1nc2ccc(Cl)cc2s1)(c1ccccc1)c1ccccc1,inactive: -13.6%
25,CC(C)CC(=O)NC(Sc1ccc(Cl)cc1)C(Cl)(Cl)Cl (stereo not given),inactive: -3.48%

row,SMILES,activation
1,Nc1cc(N)c2nonc2c1[N+](=O)[O-],inactive: 4.14%
2,Cc1c2non([O-])c-2c(C)[n+](=O)[n+]1[O-],inactive: -5.24%
3,O=C(NC(Sc1ccncn1)C(Cl)(Cl)Cl)c1ccccc1 (stereo not given),inactive: -2.4%
4,Oc1ccccc1CNc1ccccn1,inactive: -3.54%
5,Cc1ccc(OP(=O)(Nc2nccs2)Oc2ccc(C)cc2)cc1,inactive: -8.03%
6,COc1ccccc1OP(=O)(Nc1ccc(C)cn1)Oc1ccccc1OC,inactive: -3.99%
7,Clc1ccc(Cl)c(NC2=NCC(CBr)S2)c1 (stereo not given),inactive: 4.4%
8,CN1CCCC(OC(=O)C(c2ccccc2)c2ccccc2)C1 (stereo not given),inactive: -3.71%
9,NC(=O)c1cc([N+](=O)[O-])cc([N+](=O)[O-])c1N,inactive: -8.45%
10,Cc1ccc(N/C(=N/P(=O)(N2CCOCC2)N2CCOCC2)N2CCOCC2)cc1,inactive: -8.34%
11,CC(=O)Nc1ccc(Oc2c([N+](=O)[O-])cc([N+](=O)[O-])cc2[N+](=O)[O-])cc1,inactive: -15.3%
12,CC(=O)Nc1ccc([As](=O)(O)O)c(O)c1,inactive: -12%
13,CC(=O)c1ccc(N2CC2c2ccncc2)cc1 (stereo not given),inactive: -2.83%
14,C[C@@H]1C=CCP(=O)(Oc2ccccc2)O1 (stereo not given in full),inactive: -7.64%
15,C[C@H]1OP(=O)(Oc2ccccc2)C[C@@H]2O[C@@H]21 (stereo not given in full),inactive: -2.61%
16,Cc1ccccc1CN(C)C(=O)COC(=O)C(O)(c1ccccc1)c1ccccc1,inactive: -9.26%
17,CC(C)(C)C(=O)NC(Sc1ccccc1)C(Cl)(Cl)Cl (stereo not given),inactive: 4.54%
18,CCOc1ccc(C2=NCC(CBr)S2)cc1 (stereo not given),inactive: -10.3%
19,O=P1(Nc2nc3ccc(Cl)cc3s2)COc2ccccc2O1 (stereo not given),inactive: -11%
20,CN(C)C(=O)Oc1noc2ccccc12,inactive: 2.83%
21,Cc1ccccc1OP(=O)(Nc1ccccn1)Oc1ccccc1C,inactive: -10.8%
22,CC(NC(=O)COC(=O)C(O)(c1ccccc1)c1ccccc1)c1ccccc1 (stereo not given),inactive: -10.5%
23,CC(=O)NC(SC(=S)N(CC(C)C)CC(C)C)C(Cl)(Cl)Cl (stereo not given),inactive: -7.77%
24,Cc1ccc(OP(=O)(Nc2ccccn2)Oc2ccc(C)cc2)cc1,inactive: -10.3%
25,COC(=O)c1cc2c(s1)N=C(c1ccccc1)N(C)P2(=O)N1CCOCC1 (stereo not given),inactive: -23%

row,SMILES,activation
1,CCC(=O)N1C2C3N(C(=O)CC)C1C1N(C(=O)CC)C(C(N1C(=O)CC)N3C(=O)CC)N2C(=O)CC,inactive: -6.17%
2,O=C(OC1CN2CCC1CC2)c1ccccc1 (stereo not given),inactive: -11.4%
3,O=C(NC1CCS(=O)(=O)C1)NP(=S)(Oc1ccccc1)Oc1ccccc1 (stereo not given),inactive: -13.6%
4,CCNC(=S)/N=C(\N)N[N+](=O)[O-],inactive: -1.39%
5,Cc1ccc(NP(=O)(Oc2cccc(C)c2)Oc2cccc(C)c2)nc1,inactive: -13.8%
6,CCOC(=O)NC(Sc1ccccc1)C(Cl)(Cl)Cl (stereo not given),inactive: -4.62%
7,c1ccc(-c2nn[nH]n2)c(-c2nn[nH]n2)c1,inactive: -6.3%
8,Nc1ccc([As](=O)(O)c2ccc([N+](=O)[O-])cc2)cc1,inactive: -2.69%
9,C(Cc1nn[nH]n1)Cc1nn[nH]n1,inactive: 0.08%
10,O=C(OC1CN2CCC1CC2)c1cccc(Cl)c1 (stereo not given),inactive: 4.32%
11,CC(=O)NC(SC(=S)N(C)C)C(Cl)(Cl)Cl (stereo not given),inactive: -0.05%
12,O=[N+]([O-])c1ncn(CCn2cnc([N+](=O)[O-])n2)n1,inactive: -9%
13,O=[N+]([O-])c1ccc(O)c(/C=N/Nc2ccc([N+](=O)[O-])cc2[N+](=O)[O-])c1,inactive: -15%
14,O=[As](O)(c1ccccc1)c1ccc(O)cc1,inactive: -7.7%
15,C[C@H]1OP(=O)(Oc2ccccc2)[C@H](O)[C@H](O)[C@H]1N=[N+]=[N-] (stereo not given in full),inactive: -1.6%
16,O=P(Nc1nc2ccccc2s1)(c1ccccc1)c1ccccc1,inactive: -0.38%
17,CN(C)C1(CNC(=O)c2ccc(Cl)c(S(N)(=O)=O)c2)CCCCC1,inactive: -3.05%
18,O=P(Nc1ccccn1)(c1ccc(Br)cc1)c1ccc(Br)cc1,inactive: 6.07%
19,c1nnnn1CCn1cnnn1,inactive: -0.11%
20,O=P(Nc1nccs1)(c1ccccc1)c1ccccc1,inactive: -3.96%
21,CC(C)C(=O)NC(Sc1ccccc1)C(Cl)(Cl)Cl (stereo not given),inactive: 0.42%
22,CC1(CBr)Cn2c(nc3ccccc3c2=O)S1 (stereo not given),inactive: -9.17%
23,O=[As](O)(c1ccccc1Br)c1ccccc1Br,inactive: -9.43%
24,CC(C)/C=N\N=C(\N)N[N+](=O)[O-],inactive: -13.3%
25,COc1ccccc1CNC(=O)COC(=O)C(O)(c1ccccc1)c1ccccc1,inactive: -11.2%

row,SMILES,activation
1,CC(C)(C)C(=O)NC(Sc1ncccn1)C(Cl)(Cl)Cl (stereo not given),inactive: 0.19%
2,Clc1n[nH]nc1-c1nn[nH][15n]1,inactive: -3.38%
3,CN(CCCl)Cc1cc(Cl)c(NC2=NCCN2)c(Cl)c1,inactive: 2.87%
4,CCOP(=O)(Nc1ccc(C)cn1)OCC,inactive: -5.44%
5,CCOP(=O)(NC(=NC(C)c1ccccc1)NC(C)c1ccccc1)OCC (stereo not given),inactive: -11.5%
6,CCC1=CC2Cc3nc4ccc(Cl)cc4c(N)c3C(C1)C2 (stereo not given),inactive: -13%
7,O=P1(Nc2ccccn2)COc2ccccc2OC1,inactive: -20.5%
8,NS(=O)(=O)c1cccc(NC(=O)COC(=O)C(O)(c2ccccc2)c2ccccc2)c1,inactive: -0.53%
9,O=P1(Nc2ccc(Br)cn2)COc2ccccc2OC1,inactive: -7.64%
10,Cc1ccc(OCC(=O)OC2CN3CCC2CC3)cc1 (stereo not given),inactive: 0.43%
11,O=[As](O)(c1cccs1)c1cccs1,inactive: -10.9%
12,Nc1cccc([As](=O)(O)c2ccccc2)c1,inactive: -1.86%
13,O=P1(Nc2ncccn2)COc2ccccc2OC1,inactive: -7.71%
14,O=C(/C=C/c1ccccc1)OC1CN2CCC1CC2 (stereo not given),inactive: -16.9%
15,CN(C)C1(CNC(=O)c2ccc(S(C)(=O)=O)cc2)CCCCC1,inactive: -0.33%
16,Cc1ccc(C(=O)OC2CN3CCC2CC3)cc1 (stereo not given),inactive: -0.22%
17,CC1CCC(C(C)C)C(OP(=O)(Nc2ccccn2)c2ccccc2)C1 (stereo not given),inactive: -11%
18,Cc1nn(-c2ccccc2)c2c1P(=O)(N1CCOCC1)N(C)C(c1ccccc1)=N2 (stereo not given),inactive: -3.23%
19,CN(C(=O)Cc1ccc(Cl)c(Cl)c1)[C@H]1CC[C@@]2(CCCO2)C[C@@H]1N1CCCC1,inactive: -0.98%
20,CN(C)C(=O)c1cc([N+](=O)[O-])cc2c1-c1c(cc([N+](=O)[O-])cc1[N+](=O)[O-])C2=O,inactive: -9.28%
21,O=[N+]([O-])c1ccc2c(c1)nnn2O,inactive: 0.22%
22,CCOP1(=S)c2c(C)nn(CCC#N)c2N=C(c2ccc(F)cc2)N1C (stereo not given),inactive: 4.14%
23,CN(C(=O)Cc1ccccc1)[C@@H]1CC[C@]2(CCCO2)C[C@H]1N1CCCC1,inactive: -3.99%
24,N#CCCN(C(=O)COC(=O)C(O)(c1ccccc1)c1ccccc1)c1ccc(F)cc1,inactive: -9.2%
25,NC(=O)Nc1ccc([As](=O)(O)O)cc1,inactive: 1.34%
